{"sequences": {"note": "Sequences of proteins named here, by UniProt entry; tags and fusion partners are left off. Residues count along the entry.", "UniProt P00742, 41-179 partner limits assumed": "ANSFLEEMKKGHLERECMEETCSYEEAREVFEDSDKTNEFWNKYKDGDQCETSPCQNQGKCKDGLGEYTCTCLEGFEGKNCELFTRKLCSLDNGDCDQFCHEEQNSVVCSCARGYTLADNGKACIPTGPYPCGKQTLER", "UniProt P00742, 235-488 limits assumed": "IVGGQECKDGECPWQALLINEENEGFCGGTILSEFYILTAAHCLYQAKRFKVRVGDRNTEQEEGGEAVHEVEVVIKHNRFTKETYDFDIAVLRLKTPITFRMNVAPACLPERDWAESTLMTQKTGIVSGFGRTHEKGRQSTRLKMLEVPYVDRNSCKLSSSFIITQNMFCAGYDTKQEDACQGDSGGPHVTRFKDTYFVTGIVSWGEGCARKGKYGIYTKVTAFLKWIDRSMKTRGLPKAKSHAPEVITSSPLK"}, "source": "patent EP0627929B1", "about": "“INHIBITORS OF THROMBOSIS” (CORVAS INTERNATIONAL, INC., priority 1992, dated 1993)", "target": "T1, Human factor Xa (Homo sapiens, UniProt P00742)", "T1 construct": "Human factor Xa was prepared from purified human factor X obtained from Enzyme Research Laboratories; purchased Enzyme Research Laboratories", "test": "Factor Xa assay: inhibition of chromogenic substrate (S2765) hydrolysis", "assay_type": "biochemical", "details": "human factor Xa 0.5 nM, substrate 250 µM, 30 minute incubation, HBSA pH 7.5", "data": [{"substance": "N-Boc-D-phenylalanyl-L-aspartyl-L-prolyl-L-argininal [Boc-(D-Phe)-Pro-Arg-al, reference compound]", "values": [{"measurement": "IC50", "value": 5.3, "unit": "µM"}]}]}
